US20100184636

Target: endogenous raptor

B1: PLD2^K758R (protein)
chain: MTATPESLFPTGDELDSSQLQMESDEVDTLKEGEDPADRMHPFLAIYELQSLKVHPLVFAPGVPVTAQVVGTERYTSGSKVGTCTLYSVRLTHGDFSWTTKKKYRHFQELHRDLLRHKVLMSLLPLARFAVAYSPARDAGNREMPSLPRAGPEGSTRHAASKQKYLENYLNCLLTMSFYRNYHAMTEFLEVSQLSFIPDLGRKGLEGMIRKRSGGHRVPGLTCCGRDQVCYRWSKRWLVVKDSFLLYMCLETGAISFVQLFDPGFEVQVGKRSTEARHGVRIDTSHRSLILKCSSYRQARWWAQEITELAQGPGRDFLQLHRHDSYAPPRPGTLARWFVNGAGYFAAVADAILRAQEEIFITDWWLSPEVYLKRPAHSDDWRLDIMLKRKAEEGVRVSILLFKEVELALGINSGYSKRALMLLHPNIKVMRHPDQVTLWAHHEKLLVVDQVVAFLGGLDLAYGRWDDLHYRLTDLGDSSESAASQPPTPRPDSPATPDLSHNQFFWLGKDYSNLITKDWVQLDRPFEDFIDRETTPRMPWRDVGVVVHGLPARDLARHFIQRWNFTKTTKAKYKTPIYPYLLPKSTSTANQLPFTLPGGQCTTVQVLRSVDRWSAGTLENSILNAYLHTIRESQHFLYIENQFFISCSDGRTVLNKVGDEIVDRILKAHKQGWCYRVYVLLPLLPGFEGDISTGGGNSIQAILHFTYRTLCRGEYSILHRLKAAMGTAWRDYISICGLRTHGELGGHPVSELIYIHSRVLIADDRTVIIGSANINDRSLLGKRDSELAVLIEDTETEPSLMNGAEYQAGRFALSLRKHCFGVILGANTRPDLDLRDPICDDFFQLWQDMAESNANIYEQIFRCLPSNATRSLRTLREYVAVEPLATVSPPLARSELTQVQGHLVHFPLKFLEDESLLPPLGSKEGMIPLEVWT
exogenous PA-dependent phosphorylation of S6K1 (add-back): the exogenous PA-dependent phosphorylation of S6K1 was rescued by PLD2^wt and PLD2^K758R, but not by PLD2^F265A and PLD2^E266R
